HCMV NEC inh = disrupts HCMV UL50-UL53 complex binding; 190,000 tested, 0.15% active; HTRF UL50-UL53 interaction, normalized percent inhibition; inhibition, % (no concentration beside the values); AID 1918969; in the data active = inhibition above about 27%, passing the limit was not always enough
GIV-Gai inh = GIV-Galpha-i interaction inhibition; P08753; Galpha-i3/FITC-GIV peptide fluorescence polarization, 90 min; active compounds read low; scaled: aluminum fluoride 0%, vehicle 100%; percent of control (FP), % (no concentration beside the values); 210,000 compounds, 0.42% hits; AID 1224905;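 active means replicate mean at 85% of control or lower, very high polarization wells dropped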;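 further: wells of about 15 µL received 100 nL stock; the first replicate is given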
* = called active by the depositor; . = no result given; ! = not confirmed by another sample. Rows were chosen to be rich in hits. Some 0.43% of all compounds tested hit in one or more screens of this group.

Values run as follows: GIV-Gai inh, HCMV NEC inh
> CN1CCc2c(sc(NC(=O)C3CC3)c2-c2nc3ccccc3s2)C1
  -3.2*, .
> CC(C)N1CCc2c(sc(NC(=O)C3CC3)c2-c2nc3ccccc3s2)C1
  -3.2*, .
> CC(=O)N1CCc2c(sc(NC(=O)CSc3ccc(C)cc3)c2-c2nc3ccccc3s2)C1
  100, .
> CN1CCc2c(sc(NC(=O)CN3C(=O)c4ccccc4C3=O)c2-c2nc3ccccc3s2)C1
  124, .
> O=C(CCc1cc(Cl)no1)N1CCC(c2c[nH]c3ccccc23)(c2c[nH]c3ccccc23)CC1
  93, -8
> CCCn1c(=O)c2sc(N3CCCCC3)nc2n(CC(=O)NCCC2=CCCCC2)c1=O
  98, .
> CCN(CC)c1ccc2cc(-c3nc(-c4cc(OC)c(OC)c(OC)c4)no3)c(=O)oc2c1
  -21*, .
> COc1cc(-c2noc(-c3cc4cccc(C)c4oc3=O)n2)cc(OC)c1OC
  101, .
> CCN(CC)c1ccc2cc(-c3nc(-c4ccccc4F)no3)c(=O)oc2c1
  117, .
> CCN(CC)c1ccc2cc(-c3nc(-c4cccs4)no3)c(=O)oc2c1
  -21*, .
> CCN(CC)c1ccc2cc(-c3csc(C)n3)c(=O)oc2c1
  ., -42
> CCN(CC)c1ccc2cc(-c3nc(-c4ccccc4)cs3)c(=O)oc2c1
  -32*!, .
> CCN(CC)c1ccc2cc(-c3csnn3)c(=O)oc2c1
  162, -32
> CCN(CC)c1ccc2cc(-c3nnc(-c4cccc(Cl)c4)o3)c(=O)oc2c1
  7.6*, -45
> CCCNC(=O)c1cccc(Oc2ccnc(-c3ccc(F)cc3)n2)c1
  106, .
> COc1ccc(C=Nc2cc(NS(C)(=O)=O)ccc2C)cc1
  106, .
> CN(C(=O)c1ccco1)C1CC(C)(C)N(C)C(C)(C)C1
  101, -24
> COC(=O)CN1C(=O)C2(C(C#N)=C(N)Oc3n[nH]c(-c4cc(OC)ccc4OC)c32)c2ccccc21 (stereo not drawn)
  107, .
> O=C(OC1CCCCC1)c1c(F)c(F)c(F)c(F)c1F
  105, -3
> CC[n+]1c(/C=C/C=C2/N(C)c3ccccc3C2(C)C)sc2ccccc21
  -20*, -10
> CN1/C(=C\C=C(C#N)C#N)C(C)(C)c2ccccc21
  ., 14
> CC1(C)OC2OC(C(=O)NCc3ccccc3)C3OC(C)(C)OC3C2O1 (stereo not drawn)
  103, .
> O=C(NCCn1c(CCc2ccccc2)nc2ccccc21)c1cccnc1
  100, -22
> CCOC(=O)c1[nH]c(CSc2cccc[n+]2[O-])c(C(=O)OCC)c1C
  ., 62*
> CCOC(=O)c1[nH]c(CSc2nnc3ccccn23)c(C(=O)OCC)c1C
  ., -22
> C/C(=N\NC(=O)c1ccco1)c1ccc(C)o1
  106, -60
> CCOC(=O)N/N=C/c1ccc2c(c1)OCCO2
  ., -54
> O=C(C1CC1)N1CCN(Cc2noc(-c3ccccc3)n2)CC1
  105, .
> CCCN1CC=C2C(C#N)=C(N)C(C#N)(C#N)C(c3ccc(F)cc3F)C2C1 (stereo not drawn)
  44*, -40
> CC(=O)N1CC=C2C(C#N)=C(N)C(C#N)(C#N)[C@H](c3ccc(F)cc3F)[C@H]2C1
  ., -36
> CCc1ccc(C2C(C#N)=C(N)Oc3cc4c(cc32)OCO4)cc1 (stereo not drawn)
  104, .
> N#CC1=C(N)SC(N)=C(C#N)C1c1cc2c(cc1Cl)OCO2
  -0.4*, -26
> O=c1[nH]c(=O)n(-c2ccccc2)c(O)c1C=Nc1ccc(S(=O)(=O)N2CCCCC2)cc1
  106, -8
> O=S(=O)(c1ccc(N=Cc2c(O)ccc3ccccc23)cc1)N1CCCCC1
  ., 76*
> NS(=O)(=O)c1ccc(N=Cc2c(O)ccc3ccccc23)cc1
  ., 97*
> O=S(=O)(/N=C/c1c(O)ccc2ccccc12)c1ccccc1
  99, .
> CCOC(=O)CSc1nc2cc(C(=O)N3CCC4(CC3)OCCO4)ccc2c(=O)n1Cc1ccc2c(c1)OCO2
  133, .
> COc1cc(C2C(C(=O)Nc3ccccc3F)=C(C)NC3=C2C(=O)CC(c2ccccc2)C3)ccc1O (stereo not drawn)
  101, .
> [O-]/[N+](=C\c1ccco1)C/C(=N/O)c1cccs1
  99, -54
> O=C(CN1CCOCC1)NN=C1CCCCC1
  104, -14

Whole records, looked up by structure. Order of screens: GIV-Gai inh	HCMV NEC inh
CCc1ccc(C2C(C#N)=C(N)Oc3cc4c(cc32)OCO4)cc1 (stereo not drawn) across the screens: 104	.
COc1cc(-c2noc(-c3cc4cccc(C)c4oc3=O)n2)cc(OC)c1OC across the screens: 101	.
CCCN1CC=C2C(C#N)=C(N)C(C#N)(C#N)C(c3ccc(F)cc3F)C2C1 (stereo not drawn) across the screens: 44*	-40
O=C(NCCn1c(CCc2ccccc2)nc2ccccc21)c1cccnc1 across the screens: 100	-22
CCOC(=O)CSc1nc2cc(C(=O)N3CCC4(CC3)OCCO4)ccc2c(=O)n1Cc1ccc2c(c1)OCO2 across the screens: 133	.

The list continues:
Values run as follows: GIV-Gai inh, HCMV NEC inh
> CC1=CC(=C2C(=O)NC(=S)NC2=O)C=C(C)N1CCc1ccccc1
  98, -29
> CC1=CC(=C2C(=O)NC(=O)NC2=O)C=C(C)N1c1ccccc1
  -4.9*, -4
> c1ccc(CN2CCN(c3ncnc4scc(-c5ccccc5)c34)CC2)cc1
  108, .
> CC(CCc1ccccc1)NC(=O)c1ccc(-n2nc(OCc3ccc(Cl)cc3)ccc2=O)cc1 (stereo not drawn)
  105, -14
> COC(=O)CSc1cc(C(F)(F)F)nc2c(C(=O)OC)scc12
  107, -6
> COC(=O)c1sccc1N1Cc2ccncc2C1=O
  105, -30
> O=C1c2cnccc2CN1c1cc(F)ccc1F
  108, 35*
> CCN1C(=O)/C(=C\C=C2/N(CC)c3ccc(C(=O)OC)cc3N2CC)SC1=S
  -74*, -44
> CCN=C1S/C(=C\c2ccc(C(=O)OC)cc2)C(=O)N1CC
  100, -58
> CC1CN(Cc2nc3c(c(=O)n(C)c(=O)n3C)n2Cc2c(F)cccc2Cl)CC(C)O1 (stereo not drawn)
  96, 4
> CCn1c(=N)c(C(=O)NCc2ccccc2)cc2c(=O)n3ccccc3nc21
  109, -137
> COCCNC(=O)c1ccc2c(=O)n(CC(C)C)c(SC(C)C(=O)c3ccc(C)c(C)c3)nc2c1 (stereo not drawn)
  103, 1
> Cc1cc2nc3c(=O)[nH]c(=O)nc-3n(C(O)C(O)C(O)C(O)CO)c2cc1C (stereo not drawn)
  -74*, -132
> Cc1cc2nc3c(=O)[nH]c(=O)nc-3n(C[C@@H](O)[C@@H](O)[C@@H](O)COP(=O)(O)O)c2cc1C
  ., -166
> CCCc1cc(=O)[nH]c(Nc2ccccc2)n1
  107, 77*
> CCc1cc(=O)[nH]c(Nc2ccccc2)n1
  110, -7
> O=CN1CCN(C(=O)c2ccc(F)cc2)CC1
  98, -16
> C=CCn1c(=O)[nH]c2nc3cc(N=CN(C)C)ccc3nc2c1=O
  104, -92
> C=CCn1c(=O)[nH]c2nc3cc(N=CN(C)C)c(C)cc3nc2c1=O
  -16*, .
> COc1ccc(N2C(=O)/C(=C\c3ccc(Cl)cc3)S(=O)(=O)C2c2ccc(Cl)cc2)cc1 (stereo not drawn)
  114, .
> COc1ccc(C2=NN(c3nc(C)cs3)C(c3ccc(OC)c(OC)c3)C2)cc1OC (stereo not drawn)
  98, -73
> COc1cccc(C(=O)Nc2nnc(SCc3ccccc3)s2)c1
  ., -8
> COc1cccc(C(=O)c2sc3nsc(SCc4ccccc4)c3c2N)c1
  -42*, -39
> COC(=O)CSC1=C(C#N)C(c2cccs2)C(C(=O)Nc2ccccc2C)=C(C)N1 (stereo not drawn)
  ., -17
> C=CCN1/C(=C\C=C\c2n(CC=C)c3cc(Cl)c(Cl)cc3[n+]2CCCCCCCC)N(CCCCCCCC)c2cc(Cl)c(Cl)cc21
  -62*, .
> CCCCCCCCN1/C(=C/C=C/c2n(CCCCCCCC)c3cc(Cl)c(Cl)cc3[n+]2CCCCC)N(CCCCC)c2cc(Cl)c(Cl)cc21
  144, .
> Cc1ccc(S(=O)(=O)Nc2nc3n(n2)C(c2ccc(Cl)cc2)C=C(c2ccccc2)N3)cc1 (stereo not drawn)
  -66*!, -54
> COc1ccc(C(=O)Nc2nc3n(n2)C(c2ccc(F)cc2)C=C(c2ccc(Cl)cc2)N3)cc1 (stereo not drawn)
  -66*, -17

Screening data deposited in PubChem by ICCB-Longwood Screening Facility, Harvard Medical School.
